Laboratory results published in US7414062B2, “Triazaspiro compounds useful for treating or preventing pain” (dated 2008).

Sequences of proteins named here, by UniProt entry; tags and fusion partners are left off.
UniProt P41146, whole entry: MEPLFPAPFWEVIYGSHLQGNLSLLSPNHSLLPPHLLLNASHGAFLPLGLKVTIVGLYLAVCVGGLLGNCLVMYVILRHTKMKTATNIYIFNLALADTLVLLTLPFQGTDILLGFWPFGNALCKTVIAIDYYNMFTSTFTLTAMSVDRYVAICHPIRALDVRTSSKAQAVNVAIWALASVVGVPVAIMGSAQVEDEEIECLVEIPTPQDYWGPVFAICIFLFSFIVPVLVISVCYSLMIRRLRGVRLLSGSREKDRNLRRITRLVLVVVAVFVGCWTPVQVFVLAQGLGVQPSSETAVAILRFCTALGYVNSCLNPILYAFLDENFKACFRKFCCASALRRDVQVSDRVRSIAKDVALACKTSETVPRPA
UniProt P35372, whole entry: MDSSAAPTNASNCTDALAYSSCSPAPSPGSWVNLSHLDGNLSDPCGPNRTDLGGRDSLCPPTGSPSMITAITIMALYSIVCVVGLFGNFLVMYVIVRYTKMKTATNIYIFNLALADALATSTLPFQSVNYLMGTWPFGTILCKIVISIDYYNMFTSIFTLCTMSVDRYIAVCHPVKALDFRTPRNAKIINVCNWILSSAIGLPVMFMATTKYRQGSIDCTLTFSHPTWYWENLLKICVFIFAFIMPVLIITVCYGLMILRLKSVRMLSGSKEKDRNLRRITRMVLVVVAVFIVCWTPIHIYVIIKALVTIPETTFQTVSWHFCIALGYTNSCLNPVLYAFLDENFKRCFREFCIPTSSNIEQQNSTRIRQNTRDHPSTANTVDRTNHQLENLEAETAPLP

How the values were obtained:
[1] = target: human opioid receptor-like (ORL-1) receptor (Homo sapiens, UniProt P41146); test: ORL-1 receptor radioligand dose-displacement binding assay ([3H]-nociceptin); settings: read-out: binding constant Ki, ORL-1 receptors; displacement of 0.1 nM [3H]-nociceptin; HEK-293 membranes
Protocol: All reagents were from obtained from Sigma (St. Loius, Mo.) unless noted otherwise. Membranes from recombinant HEK-293 cells expressing the human opioid receptor-like (ORL-1) receptor (Perkin Elmer, Boston, Mass.) were prepared by lysing cells in ice-cold hypotonic buffer (2.5 mM MgCl2, 50 mM HEPES, pH 7.4) (10 mL/10 cm dish), followed by homogenization with a tissue grinder/teflon pestle. Membranes were collected by centrifugation at 30,000×g for 15 min at 4° C., and pellets were resuspended in hypotonic buffer to a final concentration of 1-3 mg/mL. Protein concentrations were determined using the BioRad (Hercules, Calif.) protein assay reagent with bovine serum albumen as standard. Aliquots of the ORL-1 receptor membranes were stored at −80° C.
Radioligand dose-displacement binding assays for ORL-1 and μ receptors used 0.1 nM [^3H]-nociceptin or 0.2 nM [^3H]-diprenorphine (NEN, Boston, Mass.), respectively, with […] membrane protein/well in a final volume of […] binding buffer (10 mM MgCl2, 1 mM EDTA, 5% DMSO, 50 mM HEPES, pH 7.4). […] BetaScint scintillation cocktail (Wallac, Turku, Finland) was added ([…]/well), and plates were counted using a Packard Top-Count for 1 min/well. The data were analyzed using the one-site competition curve fitting functions in GraphPad PRISM v. […]

ORL-1 receptor = ORL-1 receptor (Homo sapiens, UniProt P41146); test: [35S]GTPgS functional assay, ORL-1 receptor membranes; settings: maximal effect relative to nociceptin
Protocol: (§1) [^35S]GTPgS functional assays were conducted using freshly thawed ORL-1 or μ-receptor membranes, as appropriate. Assay reactions were prepared by sequentially adding the following reagents to binding buffer (100 mM NaCl, 10 mM MgCl2, 20 mM HEPES, pH 7.4) on ice (final concentrations indicated): membrane protein (0.066 mg/mL for ORL-1 receptor and 0.026 mg/mL for μ-receptor), saponin (10 mg/ml), GDP (3 mM) and [^35S]GTPgS (0.20 nM; NEN). The prepared membrane solution ([…]/well) was transferred to 96-shallow well polypropylene plates containing 10 mL of 20× concentrated stock solutions of the agonist nociceptin prepared in dimethyl sulfoxide (“DMSO”). Plates were incubated for 30 min at room temperature with shaking. Reactions were terminated by rapid filtration onto 96-well Unifilter GF/B filter plates (Packard, Meriden, Conn.) using a 96-well tissue harvester (Brandel, Gaithersburg, Md.) followed by three filtration washes with 200 mL of ice-cold binding buffer (10 mM NaH2PO4, 10 mM Na2HPO4, pH 7.4). Filter plates were subsequently dried at 50° C. for 2-3 h. BetaScint scintillation cocktail (Wallac, Turku, Finland) was added ([…]/well) and plates were counted using a Packard Top-Count for 1 min/well. Data were analyzed using the sigmoidal dose-response curve fitting functions in GraphPad PRISM, v. 3.0. […]

μ-opioid receptor [2] = target: T1, μ-opioid receptor (Homo sapiens, UniProt P35372); test: μ-receptor radioligand dose-displacement binding assay ([3H]-diprenorphine); settings: read-out: binding constant Ki, μ-opioid receptors; displacement of 0.2 nM [3H]-diprenorphine
Protocol: Radioligand dose-displacement binding assays for ORL-1 and μ receptors used 0.1 nM [^3H]-nociceptin or 0.2 nM [^3H]-diprenorphine (NEN, Boston, Mass.), respectively, with […] membrane protein/well in a final volume of […] binding buffer (10 mM MgCl2, 1 mM EDTA, 5% DMSO, 50 mM HEPES, pH 7.4). Reactions were carried out in the absence or presence of increasing concentrations of unlabled nociceptin (American Peptide Company, Sunnyvale, Calif.) or naloxone, for ORL-1 and μ, respectively. All reactions were conducted in 96-deep well polypropylene plates for 1-2 h at room temperature. Binding reactions were terminated by rapid filtration onto 96-well Unifilter GF/C filter plates (Packard, Meriden, Conn.) presoaked in 0.5% polyethylenimine using a 96-well tissue harvester (Brandel, Gaithersburg, Md.) followed performing by three filtration washes with 500 mL of ice-cold binding buffer. Filter plates were subsequently dried at 50° C. for 2-3 h. BetaScint scintillation cocktail (Wallac, Turku, Finland) was added ([…]/well), and plates were counted using a Packard Top-Count for 1 min/well. The data were analyzed using the one-site competition curve fitting functions in GraphPad PRISM v. 3.0 (San Diego, Calif.).

μ-opioid receptor [3] = target: T1, μ-opioid receptor; test: [35S]GTPgS functional assay, μ-receptor membranes
Protocol: as §1

CCOC(=O)CN1CN(c2ccccc2)C2(CCN(CCC(c3ccccc3)c3ccccc3)CC2)C1=O
pKi [1]: 7.74 | ORL-1 GTP Emax (ORL-1 receptor): 95% | pKi (μ-opioid receptor [2]): 8.54 | μ GTP Emax (μ-opioid receptor [3]; maximal effect relative to DAMGO): 88% | pEC50 (μ-opioid receptor [3]; read-out: μ GTP EC50, [35S]GTPgS, μ-receptor membranes): 7.36

pEC50, pKi: −log10 of the molar value.
